Measured values: publication PMC6384991, “5-Arylideneimidazolones with Amine at Position 3 as Potential Antibiotic Adjuvants against Multidrug Resistant Bacteria” (Molecules, 2019)

Experiment: in vitro
Settings: PAMPA, pH 7.4

CCn1cc(C(=O)O)c(=O)c2cc(F)c(N3CCNCC3)cc21 [Norfloxacin, norfloxacin]
Papp at 5 h, 200 µM: 0.56 ± 0.1 ×10⁻⁶ cm/s
